The values below are quoted from earlier work in PMC8553517 (ACS infectious diseases, 2021).

The conditions of data set [1]: microsomes, 2 h; cited from earlier work.
The conditions of data set [2]: microsomes, 2 h; cited from earlier work. The source holds these as a separate data set.

`CC(C)Oc1cc(NC(=N)c2ccccn2)ccc1-c1ccc(-c2ccc(NC(=N)c3ccccn3)cc2OC(C)C)o1` [Compound 1]: in data set [1], the “Human liver microsome percent remaining” value was >50% after 120 min^c. Moreover, the “Mouse liver microsome percent remaining” value in data set [2] is recorded as >50% after 120 min^c.
